The list shows a part of the results, in another mix than the full data. Some tests of the compounds listed are not included; inactive here does not mean inactive elsewhere. Calls of active or inactive are those of the source.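 The calls were made as follows: active = at 10 µM dose, activation of 40% or more, normalized to positive control; inactive = the rest.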

Here are results for 24 molecules from PubChem BioAssay AID449763 (Sanford-Burnham Center for Chemical Genomics, 2010).

The nature of the test: activators of apoptotic CHOP UPR arm, primary screen, cell-based, CHO-CHOP luciferase reporter, luminescence, uHTS (AID 449763).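 Also: 100% = tunicamycin at 10 µg/mL and 0% = DMSO alone.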 The note with it: at 10 µM, stronger effect = higher value, percent of tunicamycin response over DMSO baseline. The essentials:
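Dosing – one dose, 10 µM in 0.5% DMSO · System – CHO-CHOP cells, stable luciferase reporter of PERK-eIF2a-CHOP signalling · Input – 500 cells/well · Control set – tunicamycin 10 µg/mL final as positive, DMSO-only wells as negative · Timing – 6 h compound treatment, 37 °C · Measure – % activation vs tunicamycin · Technique – luminescence read with Steady-Glo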
(In general: In a reporter assay the amount or activity of a reporter protein is the signal.)
In the case of `Cc1cc(C(=O)NCC2(N3CCCCC3)CCCCC2)ccc1[N+](=O)[O-]`, the activation is inactive: 1.39%.
On to `CCN1CCCC(OC(=O)C2(O)c3ccccc3C=Cc3ccccc32)C1` (centres undefined), for which the activation was inactive: -2.21%.
The figure for `O=C(NCC1(N2CCCCC2)CCCCC1)c1cccc(Br)c1` is inactive: -0.346%; for `COc1ccc(C(=O)NCC2(N(C)C)CCCCC2)cc1` it is inactive: 0.436%.
On to `C=CCN1CCN(CCOC(=O)C(O)(c2ccccc2)c2ccccc2)CC1`, for which the activation was inactive: -1.3%.
In the case of `O=C(NCC1(N2CCCCC2)CCCCC1)c1cc(F)c(F)cc1Cl`, the activation was inactive: 0.373%.
With `Cc1ccccc1C(=O)NCC1(N2CCCCC2)CCCCC1`, the activation is inactive: -1.33%.
As for `CN(C)C1CCCC1OC(=O)C(O)(c1ccccc1)c1ccccc1` (centres undefined), the figure is inactive: 0.639%; as for `CN(C)c1ccc(C(=O)NCC2(N(C)C)CCCCC2)cc1`, inactive: -1.16%; as for `Cc1ccc(C(=O)NCC2(N3CCCCC3)CCCCC2)cc1`, inactive: -1.55%.
Consider `CC(C)N1C(=O)CC2(CCN(CCOC(=O)C(O)(c3ccccc3)c3ccccc3)CC2)C1=O`, for which the activation was inactive: -3.13%.
As for `CCN(CC)CC(C)C(C)OC(=O)C(O)(c1ccccc1)c1ccccc1` (centres undefined), the figure is inactive: -0.995%; as for `COc1cc(SC)ccc1C(=O)NCC1(N(C)C)CCCCC1`, inactive: -0.257%; as for `CN1[C@@H]2CC[C@H]1CC(OC(=O)C(O)(c1ccccc1)c1ccccc1)C2` (some centres undefined), inactive: -0.843%.
Turning to `O=C(NCC1(N2CCCCC2)CCCCC1)c1cc([N+](=O)[O-])ccc1Cl`, the activation was inactive: -2.09%.
As for `CN(C)c1cccc(C(=O)NCC2(N(C)C)CCCCC2)c1`, the figure is inactive: 0.073%; as for `CC(C)Oc1ccc(C(=O)NCC2(N(C)C)CCCCC2)cc1`, inactive: 0.965%; as for `COc1ccc(Br)c(C(=O)NCC2(N3CCCCC3)CCCCC2)c1`, inactive: -1.88%.
As for `O=C(OC1CN2CCC1CC2)C(CO)(c1ccccc1)c1ccccc1` (centres undefined), the figure is inactive: -2.6%; as for `O=C(NCC1(N2CCCCC2)CCCCC1)c1cccc(Cl)c1`, inactive: -0.606%; as for `COc1cccc(C(=O)NCC2(N3CCCCC3)CCCCC2)c1`, inactive: 1.57%.
As for `COc1ccc(Cl)cc1C(=O)NCC1(N(C)C)CCCCC1`, the figure is inactive: 1.62%.
As for `COc1cc(C(=O)NCC2(N(C)C)CCCCC2)c([N+](=O)[O-])cc1OC`, the activation is inactive: 1.51%.
The figure for `CN(C)C1(CNC(=O)c2ccc(Br)cc2)CCCCC1` is inactive: -2.49%.
